# From ChEMBL document CHEMBL1137016, “1-alkyl-8-(piperazine-1-sulfonyl)phenylxanthines: development and characterization of adenosine A2B receptor antagonists and a new radioligand with subnanomolar affinity and subtype specificity” (J Med Chem, 2009)
# What was measured:
# Adenosine receptor A2b [1] = molecular target: T1, Adenosine receptor A2b (Homo sapiens, UniProt P29275); assay: biochemical
# T1 sequence (P29275 whole entry): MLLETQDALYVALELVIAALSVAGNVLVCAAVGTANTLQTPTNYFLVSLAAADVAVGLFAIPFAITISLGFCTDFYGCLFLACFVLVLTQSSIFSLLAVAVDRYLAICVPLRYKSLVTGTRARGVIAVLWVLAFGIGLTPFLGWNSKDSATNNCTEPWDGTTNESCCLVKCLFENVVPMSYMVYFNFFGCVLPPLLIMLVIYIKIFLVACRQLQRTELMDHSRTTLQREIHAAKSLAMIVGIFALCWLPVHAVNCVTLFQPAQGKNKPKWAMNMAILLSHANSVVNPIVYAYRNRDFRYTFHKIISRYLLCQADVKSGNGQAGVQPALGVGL
# Adenosine receptor A2b [2] = molecular target: T1, Adenosine receptor A2b; assay: Displacement of [125I]ZM-241385 from human recombinant adenosine A2B receptor expressed in HEK293 cells; format: cell-based
# Adenosine receptor A2b [3] = molecular target: T1, Adenosine receptor A2b; assay: Displacement of [3H]PSB-603 from human recombinant adenosine A2B receptor expressed in CHO cells; format: cell-based
# Adenosine receptor A2b [4] = molecular target: T1, Adenosine receptor A2b; assay: biochemical; remark: listed apart in the source
compound,measurement,setting,value
Nc1nc2ccc(Cl)cc2c2nc(-c3ccco3)nn12 [CGS-15943],Ki,Adenosine receptor A2b [1],9.8 nM
same,Ki,Adenosine receptor A2b [2],16.4 nM
same,Ki,Adenosine receptor A2b [3],30 nM
same,Ki,Adenosine receptor A2b [4],34.2 nM
